Laboratory results as given in PubChem BioAssay AID504648 (National Center for Advancing Translational Sciences (NCATS), 2011).
This is a selection; strong and weak results do not stand in their true shares. Results filed as inconclusive are left out. Calls of active or inactive are those of the source. Calls come from the whole dose curve; as a rule, active = well fitted inhibition curve with a large enough effect; inconclusive = small, poorly fitted or top-dose-only effect, or effect the other way, or another doubt; inactive = no such curve, though single readings can be large or run the other way.

test: Nrf2 qHTS screen for inhibitors: counterscreen for cytotoxicity; conditions: A549 ARE-Fluc cells, CellTiter-Fluor viability, 18-24 h; series mostly up to 46 µM; activity change, negative = cytotoxicity: at the top concentration
From the text: NIH Molecular Libraries Probe Production Network [MLPCN]
NIH Chemical Genomics Center [NCGC]
Assay Provider: Shyam Biswal, Johns Hopkins University
Nrf2 is a transcription factor that maintains cellular redox homoestasis and protects cells from xenobiotics. Nrf2 binds to the antioxidant response element (ARE) to induce gene expression of a broad spectrum of genes that encode for antioxidants. […] Finding a small molecule that act as an inhibitor of Nrf2 function would represent a novel therapeutic target that could lead to improvement in survival of patients undergoing chemo- and/or radio- therapy.
So here we implemented a counterscreen to weed out the cytotoxic compounds.
1. Shibata, T., et al., Genetic Alteration of Keap1 Confers Constitutive Nrf2 Activation and Resistance to Chemotherapy in Gallbladder Cancer. Gastroenterology, 2008.
2. Sjoblom, T., et al., The consensus coding sequences of human breast and colorectal cancers. Science, 2006. 314(5797): p. 268-74.
NCGC Assay Protocol Summary:
A concentration-response assay was performed with A549 ARE_Fluc cells which are suspended in 5% FBS OPTI-MEM. Five uL were dispensed into 1536-well white TC-treated plate using the Kalypsys dispenser to achieve a density of 5000 cells/well in all columns except column 1. The plate is incubated at 37deg C at 5% CO2 for 2 hours before 23 nL of compounds are added with the Kalypsys pin tool equipped with a 1,536-pin array containing 10-nL slotted pins (FP1S10, 0.457-mm diameter, 50.8 mm long; V&P Scientific). The control compounds Budesonide and Staurosporine are both added at a concentration of 2mM and Budesonide is also added as a 1:10 titration, starting at 200uM, to achieve dose-response. After an 18-24 hour incubation at 37deg C at 5% CO2, 5ul of medium is added to column 1. Afterwards 1ul of 5x of CellTiter-Fluor (Promega) is added to every well. The plate is then incubated at 37deg C at 5% CO2 for 30 minutes before they are read on the ViewLux (Perkin Elmer) for a fluorescent read Ex=405(10)/Em=525(10) for a 3 second exposure, 2x binning, and high gain. Then 3 uL of 3x BugLite is dispensed into all wells and the plate is incubated at ambient room temperature for 15 minutes. Afterwards another ViewLux read is performed using the clear filter to get a luminescent read with the settings of 40 second exposure, 2x binning, and high gain. Cytotoxicity is assessed through the first fluorescent read and then biochemical activity against Nrf2 is measured in the luminescent read.
% is set by controls: 0 for no effect and ±100 for the full control effect.

Structure (SMILES) | activity change, negative = cytotoxicity
O=[N+]([O-])c1ccc2c(c1)nnn2O | inactive: -0.803%
CN(C)C(=O)c1cc([N+](=O)[O-])cc2c1-c1c(cc([N+](=O)[O-])cc1[N+](=O)[O-])C2=O | inactive: -29.9%
CN(C(=O)Cc1ccc(Cl)c(Cl)c1)[C@H]1CC[C@@]2(CCCO2)C[C@@H]1N1CCCC1 | inactive: -4.63%
N#CCCN(C(=O)COC(=O)C(O)(c1ccccc1)c1ccccc1)c1ccc(F)cc1 | inactive: 10.6%
CN(C(=O)Cc1ccccc1)[C@@H]1CC[C@]2(CCCO2)C[C@H]1N1CCCC1 | inactive: -6.26%
CCOP1(=S)c2c(C)nn(CCC#N)c2N=C(c2ccc(F)cc2)N1C (stereo unspecified) | inactive: 2.74%
NC(=O)Nc1ccc([As](=O)(O)O)cc1 | inactive: -1.08%
Nc1ccccc1[As](=O)(O)c1ccccc1 | inactive: -0.624%
O=C(O)COc1ccc([As](=O)(O)O)cc1[N+](=O)[O-] | inactive: 5.55%
CS(=O)(=O)c1cc([N+](=O)[O-])c2no[n+]([O-])c2c1 | inactive: -11%
CCOP1(=S)c2c(C)nn(CCC#N)c2N=C(c2ccccc2F)N1C (stereo unspecified) | inactive: 6.5%
O=P(Nc1nccs1)(Oc1ccccc1)Oc1ccccc1 | inactive: 11%
O=P(Nc1nccs1)(c1ccccc1)c1nc2ccccc2s1 (stereo unspecified) | inactive: -9.15%
COc1cc(C2NCCC3(OCCO3)C2(C)C)cc(OC)c1OC (stereo unspecified) | inactive: 2.61%
CCOP(=O)(Nc1cccc2ccccc12)OCC | inactive: -6.78%
CCCOP(=S)(Nc1nc(N)cc(=O)[nH]1)OCCC | inactive: 5.43%
Cc1ccc(NCCc2c([N+](=O)[O-])cc([N+](=O)[O-])cc2[N+](=O)[O-])cc1 | inactive: -16.3%
Nc1cccc2c([As](=O)(O)O)cccc12 | inactive: -2.61%
Cc1cccc(OCC(=O)OC2CN3CCC2CC3)c1 (stereo unspecified) | inactive: 6.56%
O=[As](O)(c1cccc(O)c1)c1cccc(O)c1 | inactive: -4%
O=[As](O)(O)c1cccnc1 | inactive: 0.607%
COc1cc(C(=O)NCC2(N3CCOCC3)CCCCC2)cc(Cl)c1OC(C)C | inactive: -4%
CS(=O)(=O)c1ccc(Cl)c(NC(=O)COC(=O)C(O)(c2ccccc2)c2ccccc2)c1 | inactive: -6.5%
O=C(OC1CN2CCC1CC2)c1ccc(Cl)cc1 (stereo unspecified) | inactive: 1.59%
CC1(CBr)Cn2c(nc3ccccc3c2=O)S1 (stereo unspecified) | inactive: -6.17%
CN(C(=O)Cc1ccc(Cl)c(Cl)c1)[C@@H]1CCCC[C@H]1N1CCCC1 | inactive: 6.9%

Structure (SMILES) | activity change, negative = cytotoxicity
COc1ccccc1CNC(=O)COC(=O)C(O)(c1ccccc1)c1ccccc1 | inactive: 1.25%
Clc1n[nH]nc1-c1nn[nH][15n]1 | inactive: 1.61%
CC(C)(C)C(=O)NC(Sc1ncccn1)C(Cl)(Cl)Cl (stereo unspecified) | inactive: 4.58%
CCOP(=O)(Nc1ccc(C)cn1)OCC | inactive: 0.325%
O=P1(Nc2ccccn2)COc2ccccc2OC1 | inactive: 11.2%
CCOP(=O)(NC(=NC(C)c1ccccc1)NC(C)c1ccccc1)OCC (stereo unspecified) | inactive: -3.63%
Cc1ccc(OCC(=O)OC2CN3CCC2CC3)cc1 (stereo unspecified) | inactive: 19%
O=[As](O)(c1cccs1)c1cccs1 | inactive: 2.05%
O=P1(Nc2ccc(Br)cn2)COc2ccccc2OC1 | inactive: 0.522%
NS(=O)(=O)c1cccc(NC(=O)COC(=O)C(O)(c2ccccc2)c2ccccc2)c1 | inactive: 2.71%
Nc1cccc([As](=O)(O)c2ccccc2)c1 | inactive: -0.781%
O=P1(Nc2ncccn2)COc2ccccc2OC1 | inactive: -8%
O=C(/C=C/c1ccccc1)OC1CN2CCC1CC2 (stereo unspecified) | inactive: 0.0477%
CCCC1OP(=O)(Nc2ccccc2)OCC1CC (stereo unspecified) | inactive: -4.16%
CN(C)C1(CNC(=O)c2ccc(S(C)(=O)=O)cc2)CCCCC1 | inactive: -0.76%
Cc1nn(-c2ccccc2)c2c1P(=O)(N1CCOCC1)N(C)C(c1ccccc1)=N2 (stereo unspecified) | inactive: 2.34%
Cc1ccc(C(=O)OC2CN3CCC2CC3)cc1 (stereo unspecified) | inactive: 0.26%
O=[N+]([O-])c1ccc(Nc2ccc(Oc3ccc([N+](=O)[O-])cc3[N+](=O)[O-])cc2)c([N+](=O)[O-])c1 | inactive: -5.23%
O=P(Nc1ccccn1)(c1cccc2ccccc12)c1cccc2ccccc12 | inactive: -6.01%
Cc1cc(SC(NC=O)C(Cl)(Cl)Cl)ncn1 (stereo unspecified) | inactive: 1.49%
CCOC(=O)Nc1cccc([As](=O)(O)O)c1 | inactive: 12.8%
CCCCOc1ccc(C(=O)NCC2(N3CCCCC3)CCCCC2)cc1OC | inactive: -9.62%
Cc1cc(SC(NC(=O)c2ccccc2)C(Cl)(Cl)Cl)nc(C(C)C)n1 (stereo unspecified) | inactive: 0.575%
CC1CCNP(=O)(N(CCCl)CCCl)O1 (stereo unspecified) | inactive: -0.021%
CCOC(=O)Nc1ccc([As](=O)(O)O)c(O)c1 | inactive: 0.166%
CCOP(=O)(Nc1cccc2cccnc12)OCC | inactive: -5.31%

Structure (SMILES) | activity change, negative = cytotoxicity
CCC(C)N(CC(C)C)C(=S)SC(NC(C)=O)C(Cl)(Cl)Cl (stereo unspecified) | inactive: -19.7%
CCOC(=O)c1ccc(NC(=O)C(C)(CCl)SC)cc1 (stereo unspecified) | inactive: 0.702%
O=C(OC1CN2CCC1CC2)c1cccc([N+](=O)[O-])c1 (stereo unspecified) | inactive: -5.37%
O=C(COc1ccccc1)OC1CN2CCC1CC2 (stereo unspecified) | inactive: 0.17%
O=C(Nc1ccncc1[N+](=O)[O-])c1ccc([N+](=O)[O-])cc1[N+](=O)[O-] | inactive: -19.3%
COP1(=S)c2c(C)nn(CCC#N)c2N=C(c2ccc(F)cc2)N1C (stereo unspecified) | inactive: 14.7%
COc1ccc(N/C(=N/P(=O)(N2CCOCC2)N2CCOCC2)N2CCOCC2)cc1 | inactive: 6.3%
O=[N+]([O-])c1cc(Oc2ccc([N+](=O)[O-])cc2C(F)(F)F)cc([N+](=O)[O-])c1 | inactive: 0.713%
COc1ccc2nc(NP(=O)(c3ccccc3)c3ccccc3)sc2c1 | inactive: -1.23%
COc1cc(I)ccc1[As](=O)(O)O | inactive: -5.89%
O=P1(N(CCCl)CCCl)Nc2ccccc2N1 | inactive: 2.09%
O=P1(N(CCCl)CCCl)OCCCN1CCCl (stereo unspecified) | inactive: 11.8%
O=C(OC1CN2CCC1CC2)C12CC3CC(CC(C3)C1)C2 (stereo unspecified) | inactive: 4.64%
Cc1cc(=O)[nH]c(N[N+](=O)[O-])n1 | inactive: 7.85%
CC(C)NC(=O)NP(=O)(Oc1ccccc1)Oc1ccccc1 | inactive: 0.75%
CCN(CC)C(=S)SC(NC=O)C(Cl)(Cl)Cl (stereo unspecified) | inactive: -7.09%
O=C(OC1CN2CCC1CC2)c1cccc2[nH]cnc12 (stereo unspecified) | inactive: 6.85%
COC(=O)C1(C)COP(=O)(N2CCCCCC2)OC1 (stereo unspecified) | inactive: 0.759%
CC(C)c1ccc(OP(=O)(Nc2ccccn2)Oc2ccccc2F)cc1 (stereo unspecified) | inactive: -1.12%
ClCCSc1nnc(-c2cccnc2)o1 | inactive: -2.06%
Cc1ccc2nc3c(c(C)c2c1)CC(C(Cl)Cl)S3 (stereo unspecified) | inactive: -0.15%
Cc1ccc(OP(=O)(Nc2ccc([N+](=O)[O-])cn2)Oc2ccc(C)cc2)cc1 | inactive: -1.45%
O=[As](O)(c1ccc(O)cc1)c1ccccc1O | inactive: -6.1%
C[As](=O)(O)c1cccc(C(=O)O)c1 | inactive: 5.92%
